This note sets out measurements from ChEMBL document CHEMBL1134666, “Design, synthesis, and biological evaluation of novel nucleoside and nucleotide analogues as agents against DNA viruses and/or retroviruses” (J Med Chem, 2001).

Substrate in data set [1]: Nc1ncnc2c1ncn2CCOCP(=O)(O)O
Nature of the data set: Michaelis rate constant is determined by the Lineweaver and Burk method against PRPP synthetase. In a few lines:
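PRPP synthetase reaction in 10.0 mM potassium phosphate buffer (pH 8.0) with 5.0 mM MgCl₂, 2.5 mM PRPP, 0.04 unit enzyme and AMP or test nucleotide. Reactions ran linearly and were stopped with MeOH after 4 h. Diphosphate or ATP formation was analysed by anion-exchange HPLC. Inhibition was measured at different AMP concentrations plus inhibitor, with 0.002 unit enzyme, 37 °C, 15 min, ATP formation followed by HPLC.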

Substrate in data set [2]: Nc1ncnc2c1ncn2CCOCP(=O)(O)O
Nature of the data set: (§1) Michaelis rate constant is determined by the Lineweaver and Burk method against adenosine deaminase.

Substrate in data set [3]: Nc1ncnc2c1ncn2[C@@H]1O[C@H](CO)[C@@H](O)[C@@H]1O
The description is as §1.

B1: Phosphoribosyl pyrophosphate synthase-associated protein 2 (Homo sapiens), O60256 (protein)
chain: MFCVTPPELETKMNITKGGLVLFSANSNSSCMELSKKIAERLGVEMGKVQVYQEPNRETRVQIQESVRGKDVFIIQTVSKDVNTTIMELLIMVYACKTSCAKSIIGVIPYFPYSKQCKMRKRGSIVSKLLASMMCKAGLTHLITMDLHQKEIQGFFNIPVDNLRASPFLLQYIQEEIPDYRNAVIVAKSPASAKRAQSFAERLRLGIAVIHGEAQDAESDLVDGRHSPPMVRSVAAIHPSLEIPMLIPKEKPPITVVGDVGGRIAIIVDDIIDDVDSFLAAAETLKERGAYKIFVMATHGLLSSDAPRRIEESAIDEVVVTNTIPHEVQKLQCPKIKTVDISMILSEAIRRIHNGESMSYLFRNIGLDD
By Km is commonly meant the substrate concentration at which the rate is half of its maximum. As for B1, in data set [1], the Km is 1500 µM.

B2: Adenosine deaminase (Bos taurus), P56658 (protein)
chain: MAQTPAFNKPKVELHVHLDGAIKPETILYYGRKRGIALPADTPEELQNIIGMDKPLSLPEFLAKFDYYMPAIAGCREAVKRIAYEFVEMKAKDGVVYVEVRYSPHLLANSKVEPIPWNQAEGDLTPDEVVSLVNQGLQEGERDFGVKVRSILCCMRHQPSWSSEVVELCKKYREQTVVAIDLAGDETIEGSSLFPGHVKAYAEAVKSGVHRTVHAGEVGSANVVKEAVDTLKTERLGHGYHTLEDATLYNRLRQENMHFEVCPWSSYLTGAWKPDTEHPVVRFKNDQVNYSLNTDDPLIFKSTLDTDYQMTKNEMGFTEEEFKRLNINAAKSSFLPEDEKKELLDLLYKAYGMPSPASAEQCL
For the protein B2, the Michaelis-Menten constant (Km) in data set [2] was determined as 430 µM; in data set [3], 43 µM.
